Measured values: ChEMBL document CHEMBL1147033, “Novel selective androgen receptor modulators: SAR studies on 6-bisalkylamino-2-quinolinones” (Bioorg Med Chem Lett, 2007)

Columns and labels:
Homo sapiens [1] = organism: Homo sapiens; assay: Selectivity for human AR receptor over estrogen receptor
Homo sapiens [2] = organism: Homo sapiens; assay: Selectivity for human AR receptor over progesterone receptor
Homo sapiens [3] = organism: Homo sapiens; assay: Selectivity for human AR receptor over glucocorticoid receptor
Homo sapiens [4] = organism: Homo sapiens; assay: Selectivity for human AR receptor over mineralocorticoid receptor

Measured: Fold change

Cc1cc(=O)[nH]c2ccc(N(CC(F)(F)F)CC(F)(F)F)cc12
1000: Homo sapiens [1] | Homo sapiens [2] | Homo sapiens [3] | Homo sapiens [4]

CCCN(CC(F)(F)F)c1ccc2[nH]c(=O)cc(C(F)(F)F)c2c1
1000: Homo sapiens [1] | Homo sapiens [2] | Homo sapiens [3] | Homo sapiens [4]
